{
  "source": "patent US8377983B2",
  "about": "“Benzazole derivatives, compositions, and methods of use as aurora kinase inhibitors” (TransTech Pharma, Inc., priority 2006, dated 2013)",
  "system": "BT-474 breast xenograft",
  "assay": "BT-474 xenograft model, Example 88 alone and in combination with trastuzumab",
  "format": "in vivo, athymic SCID mice",
  "conditions": "for Median Tumor Size: Example 88 30 mg/kg i.p. b.i.d. 3 days on, 2 days off, 5 cycles, trastuzumab 10 mg/kg i.p. twice weekly 4 weeks",
  "text": "Mice-bearing sc tumors were randomized, and treatment groups consisted of 10 mice.",
  "key": {"[1]": {"conditions": "day 24, out of 10 mice, Table CC head: Example 88 10 mg/kg, Trastuzumab 10 mg/kg"}},
  "data": [
    {"substance": "Trastuzumab [reference compound]", "values": [
      {"measurement": "Median Tumor Size", "setting": "day 4 of study", "value": 133, "unit": "mg"},
      {"measurement": "Median Tumor Size", "setting": "day 7 of study", "value": 132, "unit": "mg"},
      {"measurement": "Median Tumor Size", "setting": "day 10 of study", "value": 124, "unit": "mg"},
      {"measurement": "Median Tumor Size", "setting": "day 21 of study", "value": 54, "unit": "mg"},
      {"measurement": "complete responders (CR)", "setting": "[1]", "value": "0/10"},
      {"measurement": "partial responders (PR)", "setting": "[1]", "value": "0/10"},
      {"measurement": "Median Tumor Size", "setting": "day 24 of study", "value": 36, "unit": "mg"},
      {"measurement": "Median Tumor Size", "setting": "day 28 of study", "value": 18, "unit": "mg"}
    ]}
  ]
}
